Experimental data from article PMC5952519, “Screening a repurposing library, the Medicines for Malaria Venture Stasis Box, against Schistosoma mansoni” (Parasites & Vectors, 2018).

Key:
adult S. mansoni [1] = test: In vitro assay on adult S. mansoni worms, viability scoring by microscopy; settings: Schistosoma mansoni, 72 h, read-out: Adult IC50
[2] = test system: newly transformed schistosomula (NTS) of Schistosoma mansoni; test: In vitro assay on newly transformed schistosomula (NTS), viability scoring by microscopy; settings: 72 h, read-out: NTS IC50
adult S. mansoni [3] = test: In vitro assay on adult S. mansoni worms in albumin-enriched medium (45 g/l); settings: Schistosoma mansoni, 48 h, read-out: Adult IC50 with albumin
MRC5 cells = test: Cytotoxicity on MRC5 cells (values provided by MMV); format: cell-based; settings: CC50 on MRC5 cells (provided by MMV) divided by IC50 on the parasites

Structure (SMILES)	pIC50 (adult S. mansoni [1])	pIC50 [2]	pIC50 (adult S. mansoni [3])	MRC5 cells SI (selectivity index) (MRC5 cells)
CC#CC(=O)Nc1ccc2ncnc(Nc3cccc(Br)c3)c2c1 [MMV690684]	5.43	–	–	–
Fc1ccc(Cl)cc1-c1nc(Nc2ccncc2)c2nccnc2n1 [MMV690534]	5.12	5.14	–	–
O=C(O)Cc1cccc(OCCCN(Cc2cccc(C(F)(F)F)c2Cl)CC(c2ccccc2)c2ccccc2)c1 [MMV690466]	–	5.68	–	–
COc1ccc(NC(=O)c2ccc(-c3ccc(-c4noc(C)n4)cc3C)cc2)cc1N1CCN(C)CC1 [MMV003452]	5.57	5.92	4.92	0.7
Nc1nc2ccc(Cl)cc2c2nc(-c3ccco3)nn12 [MMV001539]	–	5.77	–	–
CNCc1ccc(C)c(NC(=O)c2ccc(Nc3nc(-c4ccccc4)c4ccccc4n3)cc2)c1 [MMV690732]	5.60	5.46	–	0.7
CCOc1cc2ncc(C#N)c(Nc3ccc(F)c(Cl)c3)c2cc1NC(=O)/C=C/CN(C)C [MMV690765, Pelitinib]	5.54	–	–	–

pIC50: −log10 of the molar value.
